The values below come from PMC8857812, “In vitro evaluation of the inhibition potential of echinacoside on human cytochrome P450 isozymes” (BMC Complementary Medicine and Therapies, 2022).

Sequences of proteins named here, by UniProt entry; tags and fusion partners are left off. A change or cut given only in a name is not applied to a line headed by its entry.
UniProt P05177, whole entry: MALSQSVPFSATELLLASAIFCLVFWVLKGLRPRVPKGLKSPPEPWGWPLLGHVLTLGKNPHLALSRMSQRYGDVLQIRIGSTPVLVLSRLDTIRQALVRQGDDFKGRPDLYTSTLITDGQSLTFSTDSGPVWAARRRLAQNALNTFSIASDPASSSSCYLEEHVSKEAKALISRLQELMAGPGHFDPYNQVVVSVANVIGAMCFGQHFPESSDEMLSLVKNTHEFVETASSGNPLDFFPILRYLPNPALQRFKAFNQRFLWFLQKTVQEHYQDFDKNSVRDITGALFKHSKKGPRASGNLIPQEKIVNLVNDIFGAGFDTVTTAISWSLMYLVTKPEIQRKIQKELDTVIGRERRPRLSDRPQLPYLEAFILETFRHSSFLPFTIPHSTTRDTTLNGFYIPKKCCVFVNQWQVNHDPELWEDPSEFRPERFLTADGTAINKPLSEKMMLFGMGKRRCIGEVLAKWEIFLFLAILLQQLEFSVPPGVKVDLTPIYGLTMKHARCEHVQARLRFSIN
UniProt P05181: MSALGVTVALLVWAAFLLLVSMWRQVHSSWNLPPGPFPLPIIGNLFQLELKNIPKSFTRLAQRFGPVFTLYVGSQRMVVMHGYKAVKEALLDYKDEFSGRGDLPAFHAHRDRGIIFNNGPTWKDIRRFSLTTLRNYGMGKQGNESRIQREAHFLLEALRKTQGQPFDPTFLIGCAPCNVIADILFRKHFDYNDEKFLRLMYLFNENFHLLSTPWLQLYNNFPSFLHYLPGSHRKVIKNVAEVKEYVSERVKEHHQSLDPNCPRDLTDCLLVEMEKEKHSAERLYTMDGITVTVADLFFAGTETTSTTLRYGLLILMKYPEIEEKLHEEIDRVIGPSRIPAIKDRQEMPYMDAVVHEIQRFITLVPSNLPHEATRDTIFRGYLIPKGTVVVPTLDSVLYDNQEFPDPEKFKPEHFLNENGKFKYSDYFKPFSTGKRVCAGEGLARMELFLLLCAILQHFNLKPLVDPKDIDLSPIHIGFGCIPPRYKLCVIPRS
UniProt P33261, whole entry: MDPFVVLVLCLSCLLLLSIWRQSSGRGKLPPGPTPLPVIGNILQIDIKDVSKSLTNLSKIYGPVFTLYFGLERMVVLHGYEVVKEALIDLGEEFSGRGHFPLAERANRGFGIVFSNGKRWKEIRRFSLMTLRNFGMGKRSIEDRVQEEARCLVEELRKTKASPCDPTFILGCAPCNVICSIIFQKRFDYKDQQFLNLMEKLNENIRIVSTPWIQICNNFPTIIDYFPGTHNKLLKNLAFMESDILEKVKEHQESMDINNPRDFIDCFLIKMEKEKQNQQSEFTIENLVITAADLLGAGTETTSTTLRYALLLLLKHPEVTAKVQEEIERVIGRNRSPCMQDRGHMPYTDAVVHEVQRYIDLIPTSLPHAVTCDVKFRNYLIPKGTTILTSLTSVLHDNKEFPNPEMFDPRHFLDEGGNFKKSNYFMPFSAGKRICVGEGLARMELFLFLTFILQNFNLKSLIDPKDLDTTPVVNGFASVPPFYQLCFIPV
UniProt P08684, whole entry: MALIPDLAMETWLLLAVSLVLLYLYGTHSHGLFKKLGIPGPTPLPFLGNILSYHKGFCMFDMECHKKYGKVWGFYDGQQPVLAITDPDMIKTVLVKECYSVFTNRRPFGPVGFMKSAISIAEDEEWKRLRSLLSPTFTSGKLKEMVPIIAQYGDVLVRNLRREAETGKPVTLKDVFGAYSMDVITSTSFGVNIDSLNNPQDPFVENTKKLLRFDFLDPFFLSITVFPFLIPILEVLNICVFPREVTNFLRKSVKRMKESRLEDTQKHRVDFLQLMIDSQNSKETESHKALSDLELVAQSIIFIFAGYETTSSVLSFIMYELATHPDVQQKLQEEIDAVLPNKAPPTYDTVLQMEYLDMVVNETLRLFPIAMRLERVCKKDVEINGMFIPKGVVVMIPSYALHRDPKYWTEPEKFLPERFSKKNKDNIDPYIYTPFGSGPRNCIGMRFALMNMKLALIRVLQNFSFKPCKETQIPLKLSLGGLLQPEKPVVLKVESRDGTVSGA

The target in series [1] is T1, CYP1A2 (Homo sapiens, UniProt P05177).
T1 construct: tissue PrimeTox M10000.201800; host or cells: pooled human liver microsomes (50 donors)
Briefly: CYP1A2 inhibition in HLMs, phenacetin O-deethylation probe reaction. The format is in vitro ADME. The conditions noted are these: pooled HLMs; ECH 0-100 μM; substrate phenacetin 40 μM; read-out: IC50 of CYP1A2 enzyme activity. As to the method:
(§1) Eight positive controls were used for different CYPs: 10 μM furafylline for CYP1A2, 50 μM clomethiazole for CYP2E1, 50 μM tranylcypromine for CYP2C19, 1 μM ketoconazole for CYP3A4, 10 μM tranylcypromine for CYP2A6, 5 μM montelukast for CYP2C8, 10 μM sulfaphenazole for CYP2C9, and 10 μM quinidine for CYP2D6. Phenotyping experiments were conducted by probe reactions of eight HLMs CYPs: CYP1A2 (by phenacetin), 2E1(by chlorzoxazone), 2C19 (by S-mephenytoin), 3A4 (by testosterone), 2A6 (by coumarin), 2C8 (by paclitaxel), 2C9 (by diclofenac), 2D6 (by dextromethorphan) to study the effect of ECH in vitro (Table 1). […] The reaction was initiated by adding a newly prepared NADPH generating system, maintained at 37 °C for 30 min, and then terminated by the addition of acetonitrile. The incubation conditions were optimized to assure that the reaction was linear with time and protein concentration. […]
(§2) The quantification for the corresponding metabolites was performed using a validated single LC/MS/MS run at an Ultimate 3000 HPLC system and a TSQ Quantis™ triple quadrupole mass spectrometer equipped with a heated electrospray ionization (ESI) source (Thermo Fisher, USA). […]
(§3) Briefly, reaction mixtures containing HLMs, substrate and protein were incubated with a series of ECH solutions with different concentrations (0, 2.5, 5, 10, 25, 50, 100 μM). […] IC50 values were calculated by Graphpad Prism 7.

Series [2] has as its target T2, CYP2E1 (Homo sapiens, UniProt P05181).
T2 construct: tissue PrimeTox M10000.201800; host or cells: pooled human liver microsomes (50 donors)
Briefly: CYP2E1 inhibition in HLMs, chlorzoxazone 6-hydroxylation probe reaction. The format is in vitro ADME. To be noted: pooled HLMs; ECH 0-100 μM; substrate chlorzoxazone 120 μM; read-out: IC50 of CYP2E1 enzyme activity. As to the method: as §1, §2, §3

In series [3] the target is T3, CYP2C19 (Homo sapiens, UniProt P33261).
T3 construct: tissue PrimeTox M10000.201800; host or cells: pooled human liver microsomes (50 donors)
The series can be described thus: CYP2C19 inhibition in HLMs, S-mephenytoin 4-hydroxylation probe reaction. The format is in vitro ADME. To be noted: pooled HLMs; ECH 0-100 μM; substrate S-mephenytoin 100 μM; read-out: IC50 of CYP2C19 enzyme activity. As to the method: as §1, §2, §3

The next series addresses T4, CYP3A4 (Homo sapiens, UniProt P08684).
T4 construct: tissue PrimeTox M10000.201800; host or cells: pooled human liver microsomes (50 donors)
The series can be described thus: CYP3A4 inhibition in HLMs, testosterone 6β-hydroxylation probe reaction. It is filed as in vitro ADME. To be noted: pooled HLMs; ECH 0-100 μM; substrate testosterone 50 μM; read-out: IC50 of CYP3A4 enzyme activity. The procedure:
as §1, §2, §3

Series [4] has as its target T1, CYP1A2. Briefly: Inhibition kinetics of CYP1A2 in HLMs (Lineweaver-Burk plots). The format is in vitro ADME. To be noted: secondary plot of Lineweaver-Burk. As to the method:
(§4) To evaluate the kinetic mechanisms of ECH towards CYP1A2, CYP2E1, and CYP2C19, the incubations were conducted using different substrate concentrations and various ECH concentrations with a two-step incubation scheme, and the relative remaining activities were determined.
(§5) A one enzyme Michaelis Menten model with competitive substrate inhibition: V=VmaxS/Km1+I/KI+Sa
(§6) Michaelis-Menten model with uncompetitive substrate inhibition: V=VmaxS/Km+S1+I/KIKi
(§7) I: the concentration of the ECH; KI: the inhibition constant; Kinact: inactivation rate constant; S: the concentration of the substrate: Km:
(§8) The inhibitory effects of ECH on CYP enzymes are presented graphically as Lineweaver-Burk’s plots indicating Ki values.

Series [5] concerns the target T2, CYP2E1. Briefly: Inhibition kinetics of CYP2E1 in HLMs (Lineweaver-Burk plots). It is filed as in vitro ADME. The conditions noted are these: secondary plot of Lineweaver-Burk. As to the method: as §4, §5, §6, §7, §8
Series [6] deals with T3, CYP2C19. The series can be described thus: Inhibition kinetics of CYP2C19 in HLMs (Lineweaver-Burk plots). It is filed as in vitro ADME. The conditions noted are these: secondary plot of Lineweaver-Burk. As to the method: as §4, §5, §6, §7, §8
On the set-up of series [7]: method as in PMID 29783690. The conditions noted are these: after echinacea tablet ingestion; cited from earlier work.

As for Echinacoside, the IC50 (as a rule, the concentration that inhibits the measured activity by half) on CYP1A2 [1] stood at 21.2 µM; on CYP2E1 [2], 19.2 µM; at CYP2C19 [3], 8.7 µM; at CYP3A4, 55.4 µM. The Ki (commonly a dissociation constant, usually derived from enzyme kinetics or from competition with a known ligand) on CYP1A2 [4] is 10.6 µM; on CYP2E1 [5], 9.67 µM; at CYP2C19 [6], 4.41 µM. Besides, in series [7], the “identification in human plasma samples” value is “could not be identified”.
